Data on 1 substance can be found in patent US8003630B2, “Combinatorial therapies for the treatment of neoplasias using the opioid growth factor receptor” (The Penn State Research Foundation, priority 2004, dated 2011).

Series [1] has as its system SCC-1 cells. In words: Necrosis, trypan blue positivity of SCC-1 cells. The settings on record: SCC-1 cultures or supernatants. The procedure:
Cell number was recorded either by using the MTS proliferation bioassay (Cell Titer 96 One Solution, Promega, Madison, Wis.) and measuring absorbency after 4 hr on a Biorad (Model 3550) plate reader at 490 nm with a 750 nm background absorbance screening, or by directly counting cells. The MTS assay utilized 10 wells/treatment. For manual counts, cells were harvested by trypsinization with 0.25% trypsin/0.53 mM EDTA, centrif uiged, and counted with a hemacytometer. Cell viability was determined by trypan blue staining. At least two aliquots per well, and 4-10 wells/treatment, were counted at each time for manual counting.

Series [2] is described as follows: Plasma levels of [Met^5]-enkephalin (OGF) by radioimmunoassay, MIA PaCa-2 tumor mice. Particulars: at termination. The source says: At the time of termination, trunk blood was collected from some mice in each group.
In series [3] the test system is SCC-1 cells. In words: SCC-1 xenograft in nude mice, tumor growth, survival, termination day measurements (Example 9). The text has this: Male 4 week old nu/nu nude mice purchased from Harlan Laboratories (Indianapolis, Ind.) were housed in pathogen-free isolators in the Department of Comparative Medicine at the Penn State University College of Medicine. All procedures were approved by the IACUC committee of the Penn State University College of Medicine and conformed to the guidelines established by NIH. Mice were allowed 48 hr to acclimate prior to beginning experimentation.
Tumor cells were inoculated into nude mice by subcutaneous injection into the right scapular region. Subcutaneous injections were performed with at least 2×10^6 cells per mouse; mice were not anesthetized for this procedure.
Dosages were selected based on published reports. […] Injections of drugs were initiated 1 hr after tumor cell inoculation. […] Mice were weighed weekly to determine drug dosage.
Mice were observed daily for the presence of tumors. The latency for a visible tumor to appear, and the time until tumors were measurable (i.e., 62.5 mm^3), were recorded. Tumors were measured using calipers every day. Tumor volume was calculated using the formula w^2×1×π/6, where the length is the longest dimension, and width is the dimension perpendicular to length.
According to institutional policies and IACUC guidelines, mice were terminated when tumors became ulcerated, or tumors grew to 2 cm in diameter. […] Tumors and spleens were removed and weighed, and the lymph nodes, liver, and spleen examined for metastases.

Series [4] can be described thus: Plasma levels of OGF by radioimmunoassay, SCC-1 tumor mice. Particulars: at termination. The class given is in vivo, nude mice. The procedure: Plasma samples were assayed in duplicate.
The subject of the next series is MIA PaCa-2 cells. In words: MIA PaCa-2 xenograft in nude mice, tumor appearance, growth and termination day measurements (Example 7). Particulars: day 45. The text has this:
Male 4 week old BALB/c-nu/nu nude mice purchased from Harlan Laboratories (Indianapolis, Ind.) were housed in pathogen-free isolators in the Department of Comparative Medicine at the Penn State University College of Medicine. All procedures were approved by the IACUC committee of the Penn State University College of Medicine and conformed to the guidelines established by NIH. Mice were allowed 48 hr to acclimate prior to beginning experimentation.
MIA PaCa-2 cells (10^6 cells/mouse) were inoculated into nude mice by subcutaneous injection into the right scapular region; mice were not anesthetized for this procedure.
All drugs were dissolved in saline and prepared weekly. Injections were given within 1 hr of tumor cell inoculation.
Mice were weighed weekly throughout the experiment, and observed daily for the presence of tumors. The latency for a visible tumor to appear, and the time until tumors were measurable (i.e., 62.5 mm^3) were recorded. Tumors were measured using calipers every day after tumor appearance. Tumor volume was calculated using the formula w^2×1×π/6, where the length is the longest dimension, and width is the dimension perpendicular to length.
According to IACUC guidelines, mice were terminated when tumors became ulcerated, or tumors grew to 2 cm in diameter. Forty-five days following tumor cell inoculation, all mice were euthanized by an overdose of sodium pentobarbital (100 mg/kg) and killed by cervical dislocation; mice (with tumors) were weighed. Tumors and spleens were removed and weighed, and the lymph nodes, liver, and spleen examined for metastases.

Setting [5] is: day 50 (paclitaxel group: day each mouse died), means ± SEM.

As for [Met^5]-enkephalin [OGF], in the series with SCC-1 cells [1], the “necrosis, number of trypan blue positive cells versus control” value was “No differences in necrosis”. Moreover, the “OGF levels in plasma versus control mice” value in series [2] was “No differences”. For the same substance, the “deaths during the experimental period” value with SCC-1 cells [3] (50 days) is “No mouse in the OGF or control groups died”. Further, in the series on SCC-1 cells [3] (setting [5]), the “Body Weight” value was 32.0 ± 0.5 g and the “Spleen Weight” value came out at 225 ± 12 mg. In addition, in the series with SCC-1 cells [3] (mouse, in vivo), the “body weights versus control animals” value is reported as “No differences in body weights”; the “gross observations and pathological findings” value is “No pathological relevant findings”. The “OGF levels in plasma versus control mice with tumors” value in series [4] is reported as “No differences”. Moreover, in the series with MIA PaCa-2 cells, the “weight of the spleen decreased from control values” is recorded as “no changes in spleen weight”. For the same substance, in the series with MIA PaCa-2 cells (means ± SEM), the “Body Weight” value is on record as 31.4 ± 1.6 g and the “Spleen Weight” value was 606 ± 121 mg.
